Laboratory results from patent US20260138990A1, “TRICYCLIC FUSED IMIDAZOLE COMPOUNDS AS CD38 MODULATORS AND USES THEREOF” (AEOVIAN PHARMACEUTICALS, INC., priority 2023, published 2026).

Chains of the proteins cited; added tags and fusions are not shown.
UniProt P28907, whole entry: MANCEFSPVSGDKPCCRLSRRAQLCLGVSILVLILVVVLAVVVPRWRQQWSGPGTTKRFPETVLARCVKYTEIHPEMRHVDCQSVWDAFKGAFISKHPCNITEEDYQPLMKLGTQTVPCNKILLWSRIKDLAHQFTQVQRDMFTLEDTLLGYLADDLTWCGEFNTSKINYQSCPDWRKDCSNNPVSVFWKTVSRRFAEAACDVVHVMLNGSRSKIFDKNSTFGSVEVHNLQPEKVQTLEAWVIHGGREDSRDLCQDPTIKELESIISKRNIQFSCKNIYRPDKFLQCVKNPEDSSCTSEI
UniProt P56528, whole entry: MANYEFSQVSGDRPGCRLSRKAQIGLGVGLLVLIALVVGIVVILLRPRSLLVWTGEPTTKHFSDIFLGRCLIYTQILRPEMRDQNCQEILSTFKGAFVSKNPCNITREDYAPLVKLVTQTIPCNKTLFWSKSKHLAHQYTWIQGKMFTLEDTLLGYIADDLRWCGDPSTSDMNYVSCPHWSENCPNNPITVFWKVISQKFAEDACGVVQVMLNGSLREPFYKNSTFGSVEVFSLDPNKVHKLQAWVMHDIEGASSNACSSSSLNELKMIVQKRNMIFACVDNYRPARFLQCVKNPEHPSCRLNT

Assays:
human CD38 = human CD38 (Homo sapiens, UniProt P28907); assay: NAD+ cyclase activity assay with human recombinant CD38 protein (ε-NAD fluorescence); conditions: read-out: Human CD38 IC50; 1.9 nM human CD38, substrate ε-NAD, 30 min preincubation, fluorescence 300/410 nm
mouse CD38 = mouse CD38 (Mus musculus, UniProt P56528); assay: NAD+ cyclase activity assay with mouse recombinant CD38 protein (ε-NAD fluorescence); conditions: read-out: Mouse CD38 IC50; 0.6 nM mouse CD38, substrate ε-NAD, 30 min preincubation, fluorescence 300/410 nm
Procedure: Example 4: NAD^+ Cydase Activity Assay with Human or Mouse Recombinant CD38 Protein
The following assay was used to determine the ability of compounds of the invention to inhibit the hydrolysis of NAD^+ by the human or mouse enzyme, CD38.
Reaction buffer: 40 mM HEPES/NaOH pH 7.5, 250 mM sucrose, 0.01% Tween
Final concentrations: 0.6 nM mouse CD38 (4947-AC, Bio-Techne GmbH) 1.9 nM human CD38 (AVI2404, Bio-Techne GmbH)
Substrate: […] Nicotinamide 1,N6-ethenoadenine dinucleotide (&-NAD)
Read-out: Fluorescence intensity (extinction 300 nm/emission 410 nm)
Required reaction buffer, required CD38 concentration in reaction buffer and required e-NAD concentration in reaction buffer were prepared. […] After shaking for 15 s at 1450 rpm, plate was sealed, and assay signal were measured continuously with PHERAstar® fluorescence intensity module (extinction 300 nm/emission 410 nm).
Dose-response curves were constructed using twelve-pointfactor three dilutions in triplicates per plate. […] For data analysis, fluorescent signal of traces corresponding to each compound concentration and High and Low control were monitored over time. […] Thereafter, slopes of all compound concentrations were determined via fitting to same linear equation (GraphPad Prism) over the same time interval as determined for High control. […]

Work on `CNc1nc2cc(NC(=O)c3ccc4c(c3)-c3cncn3CCO4)ccc2s1` yielded an IC50 (human CD38) of less than 30 nM and an IC50 (mouse CD38) of 1 to 10 nM.
